According to PubChem BioAssay AID902 (National Center for Advancing Translational Sciences (NCATS), 2007):
This is a selection; strong and weak results do not stand in their true shares. Inconclusive results are not listed. The source made the active and inactive calls. Calls follow the shape of the dose curve; as a rule, active = well fitted cell-killing curve with a large enough effect; inconclusive = small, poorly fitted or top-dose-only effect; inactive = no such curve, though single readings can be large or run the other way.

experiment: qHTS Screen for Compounds that Selectively Target Cancer Cells with p53 Mutations: Cytotoxicity of p53ts Cells at the Nonpermissive Temperature; settings: H1299-p53A138V viability at 39C, ATP luminescence, 24 h; series mostly up to 9.22 µM; activity change, negative = cell killing: at the top concentration; also: nearly all actives have a fitted effect of over 55% in size
% is scaled to controls: 0 for no effect and ±100 for the full control effect; potency is read from the fitted curve at half-maximal effect.

SMILES	activity change, negative = cell killing	Potency
COc1ccc2cc1Oc1ccc(cc1)CC1c3cc(c(OC)cc3CCN1C)Oc1c(OC)c(OC)cc3c1C(C2)N(C)CC3 (stereo not drawn)	inactive: -25.4% [at 46.1 µM]	–
COc1ccc2cc1Oc1ccc(cc1)C[C@H]1c3cc(c(OC)cc3CCN1C)Oc1c(OC)c(OC)cc3c1[C@@H](C2)N(C)CC3	–	inactive
COc1ccc2cc1Oc1ccc(cc1)C[C@H]1c3cc(c(OC)cc3CCN1C)Oc1c(OC)c(OC)cc3c1[C@H](C2)N(C)CC3	–	active: 31.6 µM
